Literature values as cited in patent publication US20070141182A1, “Combination of multiple nonteroidal antiinflammatory drugs and muscle relaxants for local treatment of musculoskeletal pain” (priority 2005, published 2007).

System: COX-1 and COX-2

## CC1=C(CC(=O)O)c2cc(F)ccc2/C1=C\c1ccc([S+](C)[O-])cc1 (stereo not shown) [sulindac]
  COX-1 / COX-2 isoform selectivity of inhibition: preferentially inhibit COX-1
